Values quoted from earlier work, collected in US9910050B2, “Mutant smoothened and methods of using the same” (Curis, Inc., priority 2009, dated 2018).

Test system: Smo localization to the primary cilium
Conditions: literature reports; cited from earlier work

CC1=C2C[C@H]3[C@@H](CC=C4C[C@@H](O)CC[C@@]43C)[C@@H]2CC[C@]12O[C@@H]1C[C@H](C)CN[C@H]1[C@H]2C [cyclopamine]
ciliary accumulation of Smo in the absence of active Hh signaling: promote ciliary accumulation of Smo
